Experimental data from patent US20020168389A1, “Stable skin conditioning compositions containing retinoid boosters” (priority 2000, published 2002).

System: ARAT
Assay: Assay for ARAT activity, RPE microsomes (to identify B1)
Type: biochemical, bovine
Conditions: 10 μm compound

Dioctyiphosphatidyl Ethanolamine
% Inhibition ARAT (10 μm): 23%
